Assay results reported in article PMC11198849, “Expression and purification of human neutrophil proteinase 3 from insect cells and characterization of ligand binding” (PLOS ONE, 2024).

Assays:
Type in all cases: biochemical
hNE = target: T1, hNE (Homo sapiens, UniProt P08246); experiment: Fluorescence-based enzymatic activity assay with hNE (MeOSuc-AAPV-AMC substrate)
T1 construct: Enzymes purified from human neutrophiles (hPR3 and hNE); purchased Athens Research and Technology; host or cells: human neutrophils
T1 sequence (P08246 30-247 limits assumed): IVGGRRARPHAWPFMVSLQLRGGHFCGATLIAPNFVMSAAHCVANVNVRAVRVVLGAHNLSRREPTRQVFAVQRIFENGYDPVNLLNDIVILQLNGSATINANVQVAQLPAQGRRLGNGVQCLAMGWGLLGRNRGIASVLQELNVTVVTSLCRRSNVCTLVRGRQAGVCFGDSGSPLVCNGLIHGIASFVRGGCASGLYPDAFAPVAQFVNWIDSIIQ

rPR3 = target: T2, rPR3 (Homo sapiens, UniProt P24158); experiment: Fluorescence-based enzymatic activity assay with rPR3 (FRET peptide Abz-VADnVADYQ-EDDnp); details: Rep1-Rep3
T2 construct: TEV cleavage site (C); 6x His-tag (C); made in house; host or cells: Spodoptera frugiperda Sf9 (baculovirus), secreted
T2 sequence (P24158 28-248 limits assumed): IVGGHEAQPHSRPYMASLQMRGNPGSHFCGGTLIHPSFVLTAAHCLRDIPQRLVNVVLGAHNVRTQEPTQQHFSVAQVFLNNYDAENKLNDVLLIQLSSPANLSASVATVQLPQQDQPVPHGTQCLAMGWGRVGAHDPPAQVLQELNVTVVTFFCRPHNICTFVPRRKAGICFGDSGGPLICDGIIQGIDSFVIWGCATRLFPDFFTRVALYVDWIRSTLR

hPR3 = target: T3, hPR3 (Homo sapiens, UniProt P24158); experiment: Fluorescence-based enzymatic activity assay with hPR3 (FRET peptide Abz-VADnVADYQ-EDDnp); details: Rep1-Rep3
T3 construct: Enzymes purified from human neutrophiles (hPR3 and hNE); purchased Athens Research and Technology; host or cells: human neutrophils
T3 sequence (P24158 28-248 limits assumed): T2 sequence (P24158 28-248 limits assumed)

IC50 (hNE; IC50 replicates Rep1-Rep3, read-out: hNE IC50): 9.35 nM and 8.3 nM and 8.95 nM | IC50 (hNE; mean ± SD (n = 3), read-out: IC50 hNE This study): 9 ± 1 nM
Structure (SMILES): CC(C)(C)C(=O)Oc1ccc(S(=O)(=O)Nc2ccccc2C(=O)NCC(=O)O)cc1 [Sivelestat]

Structure (SMILES): CC1=C(C#N)[C@@H](c2ccc(C#N)cc2S(C)(=O)=O)N(C)C(=O)N1c1cccc(C(F)(F)F)c1 [BAY-85-8501]
%Relative activity of enzyme (rPR3; inhibitor 7.8 nM): 89.0593% and 90.6766% and 85.1321% | %Relative activity of enzyme (rPR3; inhibitor 15.6 nM): 76.0675% and 76.7003% and 76.2025% | %Relative activity of enzyme (rPR3; inhibitor 62.5 nM): 43.7984% and 49.2522% and 44.5595% | %Relative activity of enzyme (rPR3; inhibitor 125 nM): 32.6099% and 34.0081% and 34.3002% | %Relative activity of enzyme (rPR3; inhibitor 250 nM): 16.7036% and 20.0993% and 16.9521% | %Relative activity of enzyme (rPR3; inhibitor 500 nM): 10.4485% and 11.7346% and 8.335% | %Relative activity of enzyme (hPR3; inhibitor 7.8 nM): 72.7879% and 70.4122% and 80.9211% | %Relative activity of enzyme (hPR3; inhibitor 15.6 nM): 59.2013% and 59.3772% and 64.0885% | %Relative activity of enzyme (hPR3; inhibitor 31.25 nM): 42.7531% and 47.405% and 49.3541% | %Relative activity of enzyme (hPR3; inhibitor 62.5 nM): 29.987% and 30.5857% and 32.445% | %Relative activity of enzyme (hPR3; inhibitor 125 nM): 20.6277% and 18.9012% and 26.7161% | %Relative activity of enzyme (hPR3; inhibitor 250 nM): 10.8483% and 13.1132% and 14.812% | %Relative activity of enzyme (hPR3; inhibitor 500 nM): 6.484% and 5.722% and 6.897%

Where “and” joins values, the source holds several entries; their conditions need not be identical. Equal values may be shown once. Read-outs that look alike come from different tables or passages of the source. One block for each compound: values may come before it.
